This experiment has as its target human MLL1 construct, amino acid residues 3745-3969 (MLL^3745) (human) (UniProt Q03164).

Data on one substance can be found in publication PMC3887211, “Automethylation Activities within the Mixed Lineage Leukemia-1 (MLL1) Core Complex Reveal Evidence Supporting a “Two-active Site” Model for Multiple Histone H3 Lysine 4 Methylation” (The Journal of Biological Chemistry, 2013).

“full-length unmodified histone H3 protein (from UniProt P68431 1-136) (natural protein)” yielded a reduction of the relative intensity of the Ash2L methylation band (fluorogram densitometry), MLL1 with WRA, with unmodified full-length histone H3 against no histone H3 of 99% and a reduction of the relative intensity of the MLL1 automethylation band (fluorogram densitometry), MLL1 with WRA, with unmodified full-length histone H3 against no histone H3 of 95%.
